## Apparent affinities of Ab-91 variants for a coronavirus HR2 peptide

Values reported by Engelhart et al. 2022, doi:10.1038/s41597-022-01779-4 (FLAb copy).

Binding partner: SARS-CoV-2 spike HR2 peptide, sequence PDVDLGDISGINAS.

Parent: Ab-91, a human scFv built as VL, three GGGGS repeats, VH. Only the CDRs of the heavy chain vary.
VL: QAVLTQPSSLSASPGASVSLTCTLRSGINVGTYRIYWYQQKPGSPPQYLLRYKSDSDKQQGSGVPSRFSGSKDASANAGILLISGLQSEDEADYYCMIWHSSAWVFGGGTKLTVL
VH: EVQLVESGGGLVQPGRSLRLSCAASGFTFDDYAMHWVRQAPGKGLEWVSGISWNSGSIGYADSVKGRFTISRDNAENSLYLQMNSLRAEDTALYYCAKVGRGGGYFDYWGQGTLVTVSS

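The starting antibody came from a phage panning campaign against this peptide. In library AAYL51, one, two or three CDR residues were substituted; doubles and triples were drawn at random. The scFvs were displayed on barcoded MATa yeast, the peptide on MATalpha yeast. Binding brings cells together so that they mate, and sequencing counts the barcode pairs among the diploids. A regression on co-assayed BCL2-family reference pairs converts the normalised counts of each replicate to an apparent Kd. Each pool was mated in three replicate cultures.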

Changes read parent residue, position, new residue, counted from the first residue of the VH shown.
All variants listed here change D31 of the VH, counted from its first residue.
The Kd shown is the geometric mean over detected replicates; a lower Kd is a better binder.
Where no diploid with the target was found in any replicate, the entry reads "no signal": below detection, most likely a poor binder, though not proof of it.
As a blank, each scFv also met three strains without target: over library AAYL51, 21% of these pairings were detected, typically at 34 µM and seldom below 1.8 µM.

With D31L N54M the result was no signal (0 of 3 replicates).
With D31Q G56I F106S the result was 46 nM (3 of 3 replicates).
With D31E S63I D107Y the result was no signal (0 of 3 replicates).
With D31S N54P Y105L the result was no signal (0 of 3 replicates).
With D31H S55Q F106K the result was 11 µM (2 of 3 replicates).
With F27W D31G Y32P the result was no signal (0 of 3 replicates).
With F27T D31M V64E the result was no signal (0 of 3 replicates).
With D31I S52G V64T the result was no signal (0 of 3 replicates).
With D30I D31S S52M the result was 670 µM (2 of 3 replicates).
With D31T S55H the result was 19 µM (3 of 3 replicates).
With D31C Y32S I51T the result was 2.4 µM (1 of 3 replicates).
With D31F S52T S55H the result was 440 µM (2 of 3 replicates).
With D31W A33E K65G the result was 42 µM (1 of 3 replicates).
With D31P V99W D107Q the result was no signal (0 of 3 replicates).
With D31W S63C G102R the result was 23 µM (2 of 3 replicates).
With D31P Y32S M34A the result was no signal (0 of 3 replicates).
With D31Y W53Y V99H the result was 13 nM (3 of 3 replicates).
With D31L G104V the result was no signal (0 of 3 replicates).
With D31P G50R D107N the result was 12 µM (1 of 3 replicates).
With D31E S63T Y108Q the result was 12 nM (3 of 3 replicates).
With D31K S63D Y105W the result was 34 nM (3 of 3 replicates).
With D31T S57H V64T the result was 44 µM (3 of 3 replicates).
With D31G S63V Y105H the result was no signal (0 of 3 replicates).
With D31W V64W G102S the result was 64 µM (2 of 3 replicates).
With F29H D31N S55D the result was 14 µM (1 of 3 replicates).
With D31V G102S the result was 43 µM (1 of 3 replicates).
With D31M A33P V99K the result was 10 nM (3 of 3 replicates).
With D31K Y32G Y105E the result was 39 µM (1 of 3 replicates).
With D31T D62A F106N the result was no signal (0 of 3 replicates).
With D31R I51V G59E the result was 7.7 µM (3 of 3 replicates).
With D31H M34E N54D the result was 8.4 µM (2 of 3 replicates).
With D31I S63Q R101E the result was 27 µM (1 of 3 replicates).
With D31S Y32I K65C the result was 87 µM (3 of 3 replicates).
With F29K D31M Y108N the result was 8.2 µM (3 of 3 replicates).
With D31Y G50S Y108R the result was no signal (0 of 3 replicates).
With D31E A61N K65D the result was no signal (0 of 3 replicates).
With D31A H35E S52Q the result was no signal (0 of 3 replicates).
With D31Q G104P the result was 77 nM (3 of 3 replicates).

The closing 3 entries, repeated:

{"changes": "D31E A61N K65D", "Kd (apparent)": "no signal", "replicates with signal": "0 of 3"}
{"changes": "D31A H35E S52Q", "Kd (apparent)": "no signal", "replicates with signal": "0 of 3"}
{"changes": "D31Q G104P", "Kd (apparent)": "77 nM", "replicates with signal": "3 of 3"}

For reference, the parent read 72 nM as the reference entry and 7.5 nM as a member of this library.